## AlphaSeq binding of Ab-14 heavy chain variants to a spike HR2 peptide

Source: Li et al. 2023 (doi:10.1038/s41467-023-39022-2), MIT Lincoln Laboratory and A-Alpha Bio; data file from the FLAb repository.

Target: peptide PDVDLGDISGINAS, taken from heptad repeat 2 (HR2) of SARS-CoV-2 spike.

Each scFv is VH, three GGGGS repeats, VL, as in the parent Ab-14, and differs from it in the CDRs of the heavy chain only.
VH: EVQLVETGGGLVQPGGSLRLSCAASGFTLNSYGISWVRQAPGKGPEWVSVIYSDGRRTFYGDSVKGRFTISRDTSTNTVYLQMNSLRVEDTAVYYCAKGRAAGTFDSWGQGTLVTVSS
VL: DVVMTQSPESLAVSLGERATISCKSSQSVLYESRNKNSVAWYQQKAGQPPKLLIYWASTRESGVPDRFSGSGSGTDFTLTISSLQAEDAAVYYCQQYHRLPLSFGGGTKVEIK

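These sequences belong to a second round, designed from the earlier measurements on random variants of the parent. Their group label is 14H_GP_Gibbs (GP: Gaussian process model; Gibbs: Gibbs sampling; a sequence that several methods proposed may carry one label only). Affinity was read by AlphaSeq, a pooled yeast mating assay with surface-displayed partners. After mating in shaken culture at 30 °C for 16 h, diploids were selected and their barcode pairs sequenced. Each replicate has its own calibration line, from reference interactions of the BCL2 family. The assay was run in six technical replicates.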

The parent's heavy chain CDRs are GFTLNSYGIS, VIYSDGRRTFYGDSVK, GRAAGTFDS; each variant's own CDRs replace them letter for letter. Scale: log10 of Kd in nM, estimated from mating counts; low values are strong binders. A pair that was not seen in that replicate is written "nd"; this usually means weak binding, but a binder can also be missed. The authors' rule: three or more of the six replicates give a measured affinity, fewer mean a poor binder. A sequence measured in both rounds can read differently, since the two assays cover different ranges. Of ten entries with the parent sequence, four were seen in most replicates (averages 0.34 to 2.37), three in one and three in none, so single entries are noisy. Three control strains display no target. For all heavy chain designs, 1% of the pairings with them gave a signal, with a median of 2.08 and one signal in twenty below 0.84, so weak values seen in few replicates may be background. Also given: how often the same scFv was detected with the empty control strains, with their mean in brackets.

CDR-H1	CDR-H2	CDR-H3	log10 Kd (nM) by replicate	signal with controls
KFSLKSYGIS	VIYSDGRRTFYGDSVK	GRTAGTFDS	nd nd nd nd nd nd	0 of 18
GFTLNSYGIS	VIYSDGKRTFYGDSVK	GQTAGTFDM	0.46 1.26 1.77 2.32 2.44 nd	0 of 18
GFDLNSYGIS	VIYSDGRRTFYGDSVK	GRIAGTFDL	0.71 0.42 0.74 0.00 0.04 0.22	0 of 18
GFTLESYGIS	VIYSDGRRTFYADSVK	GQAAGTFDK	nd 0.37 0.83 0.45 1.27 0.69	2 of 18 (1.26)
GFDLNSYGIS	VIYSDGRRTFYDDDVK	GKAAGTFDS	nd nd nd nd nd nd	0 of 18
KFTLNSYGIS	VIYSDGKRTFYKDSVK	GQTAGTFDS	nd nd nd nd nd nd	0 of 18
GFGLNEYGIS	VIYSDGRRTFYGDSVK	GTNAGTFDS	-0.32 -0.22 -0.42 -0.25 0.08 -0.53	1 of 18 (1.77)
GFELNSYGIS	VIYSDGRRTFYGDSVK	GTTAGTFDL	0.08 -0.16 -0.68 0.06 0.18 -0.20	0 of 18
GFSLNSYGIS	VIYSDGRRTFYSDSVK	GREAGTFDK	-0.07 -0.33 -0.36 -0.24 -0.43 -0.32	0 of 18
YFDLNSYGIS	VIYSDGKRTFYGDSVK	GRTAGTFDS	2.37 1.17 2.03 2.77 1.96 nd	1 of 18 (1.50)
GFPLNEYGIS	VIYSDGRRTFYGDSVK	GRMAGTFDS	1.08 0.72 1.41 0.08 nd 0.45	0 of 18
GFELNSYGIS	VIYADGRRWFYGDSVK	GRQAGTFDS	0.59 nd 0.58 0.50 nd 0.69	0 of 18
GFDLNSYGIS	VIYSDGRRTAYGDSVK	GRAAGTFDV	0.73 0.31 0.66 -0.29 0.40 0.49	0 of 18
GFQLNSYGIS	VIYSDGRRTFYGDSVK	GEAAGTFDR	nd nd nd nd 1.03 nd	0 of 18
GFTLESYGIS	VIYSDGRRTFYADAVK	GWAAGTFDS	2.17 2.11 1.89 2.29 nd 2.70	0 of 18
GFNLNSYGIS	VIYSDGRRTFYIDKVK	GQAAGTFDS	nd nd nd nd nd nd	0 of 18
GFQLNSYGIS	VIYSDGRRTFYQDSVK	GRTAGTFDL	nd 1.58 nd nd nd nd	0 of 18
GFELNEYGIS	VIYSDGRRTFYGDSVK	GRSAGTFDT	0.31 0.06 -0.20 0.39 0.08 0.19	0 of 18
GFSLNEYGIS	VIYSDGRRTWYGDQVK	GRAAGTFDS	1.42 1.37 1.40 0.70 1.64 1.84	0 of 18
GFTLNSYGIS	VIYSDGRRTFYKDSVK	GQTAGTFDK	nd 1.22 nd nd 0.61 0.73	0 of 18
GFTLNSYGIS	VIYSDGRRTFYKDSVK	GEAAGTFDK	nd nd nd nd nd nd	0 of 18
GFELNSYGIS	VIYADGRRTFYSDSVK	GKAAGTFDS	-0.20 -0.06 -0.47 -0.02 -0.21 -0.04	0 of 18
KFNLNSYGIS	VIYSDGKRTFYKDSVK	GRTAGTFDS	nd nd nd nd nd nd	0 of 18
GFSLNEYGIS	VIYSDGRRTFYIDSVK	GKAAGTFDT	0.49 0.65 0.18 0.17 0.68 0.75	0 of 18
GFELNSYGIS	VIYSDGQRTFYGDSVK	GKTAGTFDS	0.50 0.58 0.08 0.32 0.98 1.27	1 of 18 (1.76)
KFKLNSYGIS	VIYSDGRRTFYQDSVK	GQTAGTFDS	nd nd nd nd nd nd	0 of 18
GFSLNEYGIS	VIYSDGRRTFYQDKVK	GRTAGTFDS	0.64 0.06 0.40 0.27 0.07 1.13	0 of 18
GFSLNNYGIS	VIYSDGRRTFYGDAVK	GKTAGTFDS	1.02 0.73 0.18 -0.03 0.42 0.58	0 of 18
GFSLNSYGIS	VIYSDGRRTFYADSVK	GRAAGKFMS	nd nd nd nd nd nd	1 of 18 (1.30)
GFDLNNYGIS	VIYSDGKRTFYGDSVK	GRTAGTFDS	-0.02 -0.02 -0.08 -0.08 0.02 0.13	1 of 18 (3.69)
KFSLNSYGIS	VIYSDGRRTFYHDSVK	GRTAGTFDS	2.75 1.41 2.45 0.89 0.43 1.06	0 of 18
GFDLNSYGIS	VIYSDGRRTFYVDDVK	GQAAGTFDF	0.73 0.21 0.14 1.91 1.50 1.13	1 of 18 (0.85)
GFSLNSYGIS	VIYSDGRRTFYADSVK	GHAAGTFDY	0.57 0.99 0.62 0.73 0.69 0.92	3 of 18 (2.86)
GFFLNEYGIS	VIYSDGRRTFYGDSVK	GQEAGTFDT	0.59 0.56 0.18 0.19 0.40 0.74	0 of 18
HFDLNSYGIS	VIYSDGRRTFYGDSVK	GRTAGTFDD	nd 1.43 0.41 0.41 0.39 2.08	0 of 18
GFTLNSYGIS	VIYSDGLRTFYHDSVK	GKTAGTFDS	0.87 0.48 0.42 0.93 0.22 0.90	0 of 18
MFDLNSYGIS	VIYSDGRRTFYGDSVK	GRQAGTFDT	nd 1.87 1.15 2.99 1.61 0.73	0 of 18
GFSLNSYGIS	VIYSDGRRTFYSDSVK	GWQAGTFDS	0.42 0.10 0.37 -0.16 0.50 0.04	0 of 18
GFELNSYGIS	VIYSDGRRTFYQDQVK	GRTAGTFDS	1.87 nd nd nd nd 1.37	0 of 18
GFHLNSYGIS	VIYSDGQRTFYVDSVK	GQAAGTFDS	nd nd nd nd nd nd	0 of 18
GFDLNSYGIS	VIYSDGRRTFYVDSVK	GKAAGTFDQ	0.76 0.62 1.01 0.86 0.90 1.29	0 of 18
GFDLNMYGIS	VIYSDGRRTFYHDSVK	GQTAGTFDS	-0.30 -0.11 -0.42 -0.19 0.14 0.33	0 of 18
GFTLNSYGIS	VIYADGRRTFYGDSVK	GHAAGTFDI	0.29 -0.01 0.27 0.14 -0.12 0.26	0 of 18
GFDLNSYGIS	VIYSDGRRTFYDDRVK	GREAGTFDS	-0.22 -0.59 -0.45 -0.57 -0.43 -0.27	0 of 18
KFSLNSYGIS	VIYSDGRRTFYGDSVK	GRTAGTFDD	0.65 0.92 0.97 0.27 1.18 0.72	1 of 18 (1.82)
GFQLNEYGIS	VIYSDGRRTFYQDSVK	GRNAGTFDS	1.54 1.32 1.20 1.12 0.90 3.01	0 of 18
GFSLNEYGIS	VIYSDGKRTFYGDSVK	GQTAGTFDS	nd -0.52 0.10 -0.68 nd 0.22	0 of 18
GFSLNWYGIS	VIYSDGRRTFYADSVK	GREAGTFDS	0.87 0.42 1.08 0.11 0.22 2.31	0 of 18
GFALNEYGIS	VIYSDGRRTFYGDSVK	GRVAGTFDS	-0.28 -0.11 -0.22 -0.11 -0.31 0.01	0 of 18
GFTLESYGIS	VIYSDGKRTFYGDKVK	GRTAGTFDS	0.05 0.18 0.37 1.25 0.96 0.76	0 of 18

Top 6 of the variants detected in all replicates, tightest first:

CDR-H1,CDR-H2,CDR-H3,log10 Kd (nM) by replicate,signal with controls
GFDLNSYGIS,VIYSDGRRTFYDDRVK,GREAGTFDS,-0.22 -0.59 -0.45 -0.57 -0.43 -0.27,0 of 18
GFSLNSYGIS,VIYSDGRRTFYSDSVK,GREAGTFDK,-0.07 -0.33 -0.36 -0.24 -0.43 -0.32,0 of 18
GFGLNEYGIS,VIYSDGRRTFYGDSVK,GTNAGTFDS,-0.32 -0.22 -0.42 -0.25 0.08 -0.53,1 of 18 (1.77)
GFALNEYGIS,VIYSDGRRTFYGDSVK,GRVAGTFDS,-0.28 -0.11 -0.22 -0.11 -0.31 0.01,0 of 18
GFELNSYGIS,VIYADGRRTFYSDSVK,GKAAGTFDS,-0.20 -0.06 -0.47 -0.02 -0.21 -0.04,0 of 18
GFELNSYGIS,VIYSDGRRTFYGDSVK,GTTAGTFDL,0.08 -0.16 -0.68 0.06 0.18 -0.20,0 of 18